In the assay the target is human CCR5 (Homo sapiens, UniProt P51681). The assay can be described thus: CCR5 signaling inhibition, aequorin calcium sensor in CHO cells, agonist human MIP-1β/CCL4. Particulars: CHO cells expressing human CCR5, agonist MIP-1β/CCL4, n=2.
The mark [1] stands for this setting: read-out: IC50, inhibition of CCR5 signaling (FIG. 1B), FIG. 1B.

Protein sequences, listed by entry. Tags and fused reporters are not part of them.
UniProt P51681, whole entry: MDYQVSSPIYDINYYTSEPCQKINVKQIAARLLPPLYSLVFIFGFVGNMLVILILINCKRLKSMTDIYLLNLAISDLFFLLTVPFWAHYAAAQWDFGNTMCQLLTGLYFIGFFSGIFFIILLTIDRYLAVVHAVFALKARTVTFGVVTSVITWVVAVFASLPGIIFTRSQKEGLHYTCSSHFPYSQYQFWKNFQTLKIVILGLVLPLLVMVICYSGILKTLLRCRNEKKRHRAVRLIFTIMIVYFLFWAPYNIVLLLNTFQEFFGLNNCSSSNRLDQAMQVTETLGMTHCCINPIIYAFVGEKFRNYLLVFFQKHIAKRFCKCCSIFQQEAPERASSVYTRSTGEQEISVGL

Like-named read-outs stand apart in the source and are kept apart here.

By IC50 is commonly meant the concentration that gives 50% inhibition.

With cencriviroc, the IC50 under setting [1] amounted to 51 nM.
As to maraviroc, the half-inhibitory concentration (IC50) was 2.7 nM (read-out: IC50, inhibition of CCR5 signaling (FIG. 1A), FIG. 1A); 4.3 nM under setting [1]; 2.6 nM (read-out: IC50, inhibition of CCR5 signaling (FIG. 1C), FIG. 1C).

The values above are taken from patent publication US20210205411A1, “CCR5 INHIBITOR FOR USE IN TREATING CANCER” (ORION BIOTECHNOLOGY SWITZERLAND SÀRL, priority 2018, published 2021).
